Measurements published in article PMC8949375, “Design, Green Synthesis and Tailoring of Vitamin E TPGS Augmented Niosomal Nano-Carrier of Pyrazolopyrimidines as Potential Anti-Liver and Breast Cancer Agents with Accentuated Oral Bioavailability” (Pharmaceuticals, 2022).

Experiments:
[1] = tested on: VEGF protein expression level in HepG2 cell line; assay: VEGF ELISA in HepG2 cell culture supernatant; format: cell-based, human; design: concentration or dose not given beside the values; conditions: compared to control
Method: Total protein was assayed using the method described by Bradford. The VEGF ELISA Assay Kit (VEGF) and ELISA Kit, (#VGF31-[…]) were purchased from (Eagle Biosciences CO., LTD, Amherst, NH, USA). The kit is a sandwich enzyme immunoassay for the in vitro quantitative determination of VEGF concentrations in cell culture supernates, serum and plasma according to the manufacturer's instructions.

[2] = tested on: VEGFR-2 protein expression level in HepG2 cell line; assay: Human VEGF receptor-2 ELISA in HepG2; format: cell-based; design: concentration or dose not given beside the values; conditions: compared to control
Method: Total protein was assayed using the method described by Bradford. The Human VEGF receptor-2 ELISA Kit (ab213476), (96 tests) was purchased from (abcam®, Waltham, MA, USA). The kit is a sandwich enzyme immunoassay for the in vitro quantitative measurement of human VEGFR-2 in tissue homogenates, cell lysates and other biological fluids according to the manufacturer’s instructions.

CNC(=O)c1cc(Oc2ccc(NC(=O)Nc3ccc(Cl)c(C(F)(F)F)c3)cc2)ccn1 [Sorafenib, reference compound]
VEGF 24 h % Inhibition ([1]; 24 h): 67.7%
VEGF 72 h % Inhibition ([1]; 72 h): 73.8%
VEGFR-2 24 h % Inhibition ([2]; 24 h): 69%
VEGFR-2 72 h % Inhibition ([2]; 72 h): 70.4%
